Patent US20220023399A1, “BLOOD COMPONENT POTENTIATION OF LYTIC PROTEIN ANTI-BACTERIAL ACTIVITY AND METHODS AND USES THEREOF” (priority 2017, published 2022)

System: staphylococci (strain not given)
Test: Checkerboard analysis of PlySs2/CF-301 with AMPs, antimicrobial proteins and albumins in heat-inactivated human serum
Format: cell-based, S. aureus
Conditions: in combination with PlySs2/CF-301

Row | Substance | ΣFICavg
1 | Serum albumin (Mouse, recombinant): mouse serum albumin, recombinant expressed in yeast | ≥1.16
2 | Serum albumin (Human, fraction V): human serum albumin, fraction V | ≤0.086
3 | Serum albumin (Mouse, from serum): mouse serum albumin from serum | ≥1.16
4 | Serum albumin (Human, recombinant): human serum albumin, recombinant | ≤0.1
